Target: PTH receptor (PTHR1) (human) (UniProt Q03431)
Experiment: cell-based or functional assay

By UniProt entry, the sequences of proteins in these tests, tags left out. Residues count along the entry.
UniProt Q03431, 27-593: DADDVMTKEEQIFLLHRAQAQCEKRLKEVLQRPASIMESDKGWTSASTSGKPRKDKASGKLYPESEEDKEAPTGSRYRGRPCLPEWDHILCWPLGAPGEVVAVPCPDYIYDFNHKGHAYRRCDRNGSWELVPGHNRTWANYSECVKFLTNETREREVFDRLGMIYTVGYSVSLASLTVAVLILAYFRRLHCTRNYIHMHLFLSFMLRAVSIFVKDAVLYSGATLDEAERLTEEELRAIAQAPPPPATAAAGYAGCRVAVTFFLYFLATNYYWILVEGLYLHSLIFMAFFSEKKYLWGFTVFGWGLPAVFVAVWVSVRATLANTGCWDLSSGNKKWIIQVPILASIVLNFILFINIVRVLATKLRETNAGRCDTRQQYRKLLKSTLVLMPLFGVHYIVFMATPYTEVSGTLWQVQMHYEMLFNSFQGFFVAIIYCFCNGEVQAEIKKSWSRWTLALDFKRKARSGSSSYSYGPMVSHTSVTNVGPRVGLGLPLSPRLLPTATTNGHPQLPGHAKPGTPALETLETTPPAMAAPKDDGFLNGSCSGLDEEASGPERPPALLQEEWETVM

“human PTHrP (coded sample EU-285) (from UniProt P12272 37-70) (ligand)” gave a Maximal response of 100%.

Reference: patent US20260248925A1
